Source: US20220169680A1 (priority 2018, published 2022)

test system: A549 cells; test: Entry of FITC-labeled polypeptides detected by flow cytometry; format: cell-based; details: single site mutants, 1 μM, 3 h, FIG. 37

Sequence | cell-penetrating peptide function compared with the parent polypeptide | cell-penetrating peptide function compared with positive control TAT
RAFFKCIYRRLKYGLKRG | stronger than that of the parent Jilin-2004(H5N1)-M2-45-62 polypeptide | –
RLFFKCAYRRLKYGLKRG | stronger than that of the parent Jilin-2004(H5N1)-M2-45-62 polypeptide | –
RLFFKCIKRRLKYGLKRG | stronger than that of the parent Jilin-2004(H5N1)-M2-45-62 polypeptide | –
RLFFKCIYRRLKYGAKRG | stronger than that of the parent Jilin-2004(H5N1)-M2-45-62 polypeptide | –
RLFFKCIYRRLKYGLKRG | – | stronger than that of the positive control TAT
RLFFKCIYSRLKYGLKRG | stronger than that of the parent Jilin-2004(H5N1)-M2-45-62 polypeptide | –
